Values quoted from earlier work, collected in patent US20100311751A1, “SOLID DISPERSIONS CONTAINING AN APOPTOSIS-PROMOTING AGENT” (ABBOTT LABORATORIES, priority 2009, published 2010).

Sequences of proteins named here, by UniProt entry; tags and fusion partners are left off.
UniProt P10415, whole entry: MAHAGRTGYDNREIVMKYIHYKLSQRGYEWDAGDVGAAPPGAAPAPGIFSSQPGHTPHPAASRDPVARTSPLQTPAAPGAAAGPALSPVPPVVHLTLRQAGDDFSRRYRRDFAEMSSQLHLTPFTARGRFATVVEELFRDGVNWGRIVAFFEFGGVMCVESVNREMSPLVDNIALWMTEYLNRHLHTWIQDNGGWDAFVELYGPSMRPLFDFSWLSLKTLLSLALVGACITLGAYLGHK

Molecular target: Bcl-2 (Homo sapiens, UniProt P10415)
Details: read-out: binding affinity (Ki) to Bcl-2; cited from earlier work

CC1(C)CCC(c2ccc(Cl)cc2)=C(CN2CCN(c3ccc(C(=O)NS(=O)(=O)c4ccc(N[C@H](CCN5CCOCC5)CSc5ccccc5)c(S(=O)(=O)C(F)(F)F)c4)cc3)CC2)C1 [ABT-263]
Ki: < 1 nM
